This is an account of results in US5711020A (priority 1996, dated 1998).

Structures are written as SMILES. Some compounds may have been tested in ways that are not shown here.

Series [1] can be described thus: TNT reduction in aqueous 1% iron powder without reducing agent. The conditions noted are these: 1.6 ppm TNT in distilled water, 1% (w/v) iron powder, anaerobic, no reducing agent. Here is the method:
The effects of the addition of iron to the system was analyzed. 1.6 ppm TNT in distilled water was combined with 1% (w/v) iron powder under anaerobic conditions. […] The TNT reduction rate was increased by shaking the reactor to enhance the mass transfer. It should be noted that TNT reduced products were not observed in this study, most likely because the reaction rate of TNT reduced products on the metal surface was extremely fast.

The conditions of series [2]: cited from earlier work.
The subject of series [3] is purified TNT-reducing agent. Kind of series: Reducing agents kinetics with purified TNT-reducing agent. The conditions noted are these: 1 μg of protein, 10^-6 M TNT.
For series [4] the following is noted: cited from earlier work. The source holds these as a separate data set.
A short description of series [5]: TNT reduction in anaerobic sediment samples, effect of initial concentration. Here is the method: To monitor the disappearance of TNT and formation of its products in anaerobic sediment samples, TNT and its reduced products were extracted from water/sediment samples with acetonitrile (Burdick and Jackson, Musegon, Mich.) and analyzed by HPLC equipped with a UV detector as follows. The solvent was 30% water (pH 10) and 70% acetonitrile at a flow rate of 0.7 ml/min. Absorbance was detected at a wavelength of 238 nm. The dinitro and monoamino toluene isomers (Peak 2) eluted at same retention time, however, these isomers can be separated and identified by GC/MS. The two diamino, mononitrotoluene isomers (Peak 3) also co-eluted. Triaminotoluene (Peak 4) eluted with the solvent front. TNT (Peak 1) and standards for identification of its reduced products were obtained from the U.S. Army Research, Development, and Engineering Center, Picatinny Arsenal, N.J.
Sediments were collected from a stagnant, slow moving stream near Athens, Ga. These sediments were passed through a 1mm sieve. Aliquots of 5 ml of sediment slurries were transferred to a series of 15-ml screw cap test tubes and kept under anaerobic condition. The sediment/water ratio was 0.12, pH was 6.5 and Eh value was -368 my (vs. Ag/AgCl). A certain amount of concentrated TNT solutions were spiked into sediment samples to achieve three concentrations of TNT. At given time intervals, one tube of sample from the series was extracted by adding 1 ml of acetonitrile, vortex-mixing for 1 min and centrifuging. The supernatant was transfer centrifuged again and analyzed. […] The rate of change of TNT concentration is a constant when the concentration of TNT is 125 ppm or greater. Beyond this concentration, the reaction proceeds at a rate independent of both concentrations of TNT and sediment. Therefore, at high TNT concentration, the reaction rate is zero order. When the concentration of TNT was decreased to 2.5 ppm, the concentration of TNT decreased exponentially with time. Plotting ln(c/c0) against time by using least-square regression method, a straight line was obtained with the value of r^2 equal to 0.99. This reaction of TNT is a first order reaction and half-life is 90 min. With 0.25 ppm TNT, the reduction rate was fast. After a certain elapsed time, the concentration change slowed down.

Series [6] deals with TNT-reducing protein extract. Kind of series: TNT reduction kinetics with protein extract and aquifer material. Here is the method:
The reducing activity of a protein extract isolated from a high organic carbon sediment was analyzed after introduction into either an aqueous solution or a low organic carbon content system such as aquifer material. One ppm TNT solution was mixed with 0.5 g/ml aquifer sample as the control. One ppm TNT solution was mixed with 15 μg/ml of the TNT-reducing protein extract isolated from fraction 18 of FIG. 2 as described above and incubated for 24 hours. The purpose of incubation was to let the substrate, TNT, associate with the denatured subunits to recover the original active form of the enzyme. This procedure was followed by the "Microbial Metabolism of Aromatic Nitriles" study described by David B. Harper, Biochem. J. 167:685-692 (1977). After the incubation period, the incubated sample was spiked with concentrated TNT solution so that the final TNT concentration was 1 ppm.
To determine whether the protein extract would bind to aquifer material and retain activity in water, 15 μg/ml of protein extract was incubated with 0.5 g/ml aquifer sample for 24 hours before the TNT solution was added. The aquifer material had been collected from Columbus Air Force Base in Georgia. The organic carbon content in this aquifer was 0,027%.
Half-life of TNT in the combined aquifer material and protein extract system is smaller than that in protein extract system alone.

Consider `Cc1c([N+](=O)[O-])cc([N+](=O)[O-])cc1[N+](=O)[O-]`, for which the t1/2 in series [1] came to 27.4 h; in series [6] (1 ppm TNT in 0.5 g/ml aquifer material alone (control)), 70.6 h; in series [6] (1 ppm TNT in 0.5 g/ml aquifer material plus 15 μg/ml protein extract) it was 4.2 h; in series [6] (1 ppm TNT plus 15 μg/ml protein extract) it was 6.5 h. The “saturated concentration in water” value in series [2] is recorded as “about 125 ppm”. In addition, the “time in which protein reduces the compound” value in series [3] is reported as “approximately 15 minutes”. Besides, the “time stable on soil surfaces in the environment” value in series [4] is listed as at most 40 years. The figures for the reaction order entry in series [5] (TNT 0.25 ppm), in series [5] (TNT 2.5 ppm) and in series [5] (TNT 125 ppm or greater) were “second order”, “first order” and “zero order”, respectively. Besides, in series [5] (initial TNT 2.5 ppm, sediment/water ratio 0.12, pH 6.5, Eh -368 mv (vs. Ag/AgCl)), the half-life (commonly how long it takes for the measured level to halve) worked out at 1.5 h.
